The values below come from patent US6008245A, “Sulfonamide-substituted benzopyran derivatives, processes for their preparation, their use as a medicament, and pharmaceutical preparations comprising them” (priority 1997, dated 1999).

pIC50: −log10 of the molar value.

The assay concerns the target T1, human IsK protein (UniProt P15382+P70057).
T1 construct: expressed in transfected cells; host or cells: Xenopus laevis oocytes injected with in vitro synthesized IsK RNA
Put plainly: cell-based.
Turning to `CN([C@@H]1c2cc(OCCCC(F)(F)F)ccc2OC(C)(C)[C@H]1O)S(C)(=O)=O` (racemic) [Example 13, (±)-trans-N-[3-Hydroxy-2,2-dimethyl-6-(4,4,4-trifluorobutoxy)-chroman-4-yl]-N-methyl-methanesulfonamide], the pIC50 (in general, −log10 of the IC50, conventionally taken in molar units) is 6.70.

Compound `CN([C@H]1c2cc(OCCCC(F)(F)F)ccc2OC(C)(C)[C@@H]1O)S(C)(=O)=O` [Example 19, (3R,4S)-(+)-N-[3-Hydroxy-2,2-dimethyl-6-(4,4,4-trifluorobutoxy)chroman-4-yl]-N-methyl-methanesulfonamide] had a negative logarithm of the IC50 (pIC50) of 7.00. Compared with the last compound, the pIC50 is 0.30 log units higher.

Compound `CN([C@@H]1c2cc(OCCCC(F)(F)F)ccc2OC(C)(C)[C@H]1O)S(C)(=O)=O` [Example 20, (3S,4R)-(-)-N-[3-Hydroxy-2,2-dimethyl-6-(4,4,4-trifluorobutoxy)chroman-4-yl]-N-methyl-methanesulfonamide] gave a negative-log IC50 (pIC50) of 6.40.
